Reference: patent EP4825857A1, “TRICYCLIC FUSED HETEROCYCLIC PDE3/4 DUAL INHIBITOR, AND PREPARATION AND USE THEREFOR” (dated 2026)

By UniProt entry, the sequences of proteins in these tests, tags left out.
UniProt P08684, whole entry: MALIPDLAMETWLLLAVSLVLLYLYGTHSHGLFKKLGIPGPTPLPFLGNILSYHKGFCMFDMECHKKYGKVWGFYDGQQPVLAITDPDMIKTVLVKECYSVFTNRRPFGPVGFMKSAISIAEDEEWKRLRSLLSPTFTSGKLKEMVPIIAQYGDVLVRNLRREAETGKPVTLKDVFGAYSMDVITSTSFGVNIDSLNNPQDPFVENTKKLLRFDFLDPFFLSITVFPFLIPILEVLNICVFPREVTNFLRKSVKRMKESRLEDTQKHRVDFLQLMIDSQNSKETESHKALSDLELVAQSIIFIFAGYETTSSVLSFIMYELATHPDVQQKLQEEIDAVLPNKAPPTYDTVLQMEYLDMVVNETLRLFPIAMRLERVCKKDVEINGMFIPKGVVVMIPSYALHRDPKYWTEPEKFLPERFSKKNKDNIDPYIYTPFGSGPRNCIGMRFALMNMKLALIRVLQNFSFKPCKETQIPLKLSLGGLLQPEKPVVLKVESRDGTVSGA
UniProt P11712, whole entry: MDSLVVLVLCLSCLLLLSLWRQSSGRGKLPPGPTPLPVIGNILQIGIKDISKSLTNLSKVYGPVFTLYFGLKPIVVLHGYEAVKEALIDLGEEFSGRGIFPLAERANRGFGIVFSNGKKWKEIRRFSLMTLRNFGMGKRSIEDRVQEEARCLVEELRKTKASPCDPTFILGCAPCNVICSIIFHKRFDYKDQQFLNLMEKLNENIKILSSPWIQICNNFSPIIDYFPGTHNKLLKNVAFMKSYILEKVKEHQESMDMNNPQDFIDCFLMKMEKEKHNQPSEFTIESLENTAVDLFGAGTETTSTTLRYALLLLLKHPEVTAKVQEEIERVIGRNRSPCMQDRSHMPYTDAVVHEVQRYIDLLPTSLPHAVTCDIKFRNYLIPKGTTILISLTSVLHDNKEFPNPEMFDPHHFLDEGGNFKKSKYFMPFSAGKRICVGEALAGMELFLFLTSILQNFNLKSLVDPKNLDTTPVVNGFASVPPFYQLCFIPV
UniProt P10635, whole entry: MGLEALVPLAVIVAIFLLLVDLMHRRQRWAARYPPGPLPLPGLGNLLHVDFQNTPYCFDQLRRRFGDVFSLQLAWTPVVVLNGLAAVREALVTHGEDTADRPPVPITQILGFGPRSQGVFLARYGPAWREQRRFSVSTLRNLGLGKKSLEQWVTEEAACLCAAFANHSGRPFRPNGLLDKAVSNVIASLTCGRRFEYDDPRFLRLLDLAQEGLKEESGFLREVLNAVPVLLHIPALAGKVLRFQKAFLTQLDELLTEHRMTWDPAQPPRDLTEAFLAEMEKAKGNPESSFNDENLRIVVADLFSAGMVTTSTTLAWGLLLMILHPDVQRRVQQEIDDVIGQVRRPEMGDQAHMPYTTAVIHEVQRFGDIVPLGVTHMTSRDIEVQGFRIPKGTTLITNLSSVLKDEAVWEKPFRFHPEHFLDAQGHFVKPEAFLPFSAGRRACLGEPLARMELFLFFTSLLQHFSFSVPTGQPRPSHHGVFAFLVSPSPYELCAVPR

How the values were obtained:
[1] = tested on: isolated tracheal smooth muscle from guinea pig; experiment: Relaxation of isolated trachea precontracted with acetylcholine chloride; details: for relief of ACh-induced contraction (in words): compared with the positive control; for EC50: read-out: EC50 (µmol/L), tracheal relaxation, ACh 1 × 10^-5 mol/L precontraction, guinea pig
Protocol: Preparation of K-H Solution: The modified K-H solution (Krebs-Henseleit solution) contained the following components (mmol/L): NaCl 133, KCl 4.7, MgSO4 0.61, NaH2PO4 1.35, CaCl2 2.52, NaHCO3 16.3, and glucose 7.8. Except for NaHCO3, CaCl2, and glucose, which were freshly added before the experiment, the other components were prepared as concentrated stock solutions and stored at room temperature. On the day of the experiment, appropriate volumes of the stock solutions were taken and diluted with ultrapure water to required concentrations. The prepared K-H solution was adjusted to pH 7.2-7.4 with hydrochloric acid, and fully pre-saturated with mixed gas of 95% O2 and 5% CO2 before use.
Experimental Animals: Male guinea pigs each weighing 300-350 g, as well as the feed, were provided by Beijing Vital River Laboratory Animal Technology Co., Ltd. All animal experiments were performed in accordance with the National Institutes of Health Guide for the Care and Use of Laboratory Animals. The animals were housed at the New Drug Evaluation Center of Hebei Yiling Pharmaceutical Research Institute Co., Ltd. under a 12 h light/dark cycle, at 20-26 °C and 40-70% relative humidity, with five animals per cage. Corncob bedding for the experimental animals was provided by Jiangsu Xietong Pharmaceutical Bioengineering Co., Ltd. and used after autoclaving. The animals were fed an SPF-grade breeding diet and provided with bottled purified water ad libitum, and the water was changed once daily. After one week of adaption, the subsequent experimental procedures were performed.
During the experiment, the animals were weighed and their body weights were recorded. The animals were stunned by a single blow to the head with a wooden rod, after which the chest was rapidly opened. The intact trachea, extending from the thyroid cartilage to the tracheal bifurcation near the lung parenchyman, was excised and immediately immersed in the modified K-H solution aerated with mixed gas of 95% O2 and 5% CO2.
The connective tissue surrounding the trachea was removed. The trachea was cut transversely at intervals of two cartilage rings. Every four cartilage rings were ligated to form one tracheal chain segment. Two tungsten wire loops were passed in parallel through the lumen of each tracheal preparation, and the specimen was placed in a bath containing 10 mL of the modified K-H solution. One side of each tracheal preparation was fixed to the lower end of a stainless-steel support through a tungsten wire loop, and the other side was connected to a tension transducer through a tungsten wire loop and a silk thread. Tracheal tension signals were recorded by a data acquisition system through the tension transducer. The bath was maintained at 37°C and continuously supplied with oxygen. The initial load was adjusted to 2 g. The K-H solution was replaced every 15 min, and the specimen was equilibrated for 1 h, during which the solution was replaced four times. The experiment was initiated after the experimental conditions had stabilized. […] The tracheal relaxation function was expressed as the tracheal relaxation rate, which was calculated as the percentage of the relaxation amplitude induced by the compound based on the ACh-induced precontraction amplitude. The EC50 value of each compound was calculated.

CYP3A4 = CYP3A4 (Homo sapiens, UniProt P08684); experiment: CYP450 DDI, inhibition in liver microsomes; details: 10 µM, 5 min
Protocol: (§1) Test Objective: To evaluate the inhibitory effects of RPL-554, Compound 1-2, Compound 10-2, Compound 67, and Compound 69 on CYP3A4, CYP2C9, and CYP2D6.
(§2) CYP enzymes: CYP3A4, CYP2C9, and CYP2D6.
(§3) Incubation conditions: test compound incubation time, 5 min for CYP3A4, and 10 min for CYP2C9 and CYP2D6; test compound final concentration, 10 µM; microsomal protein concentration, 0.5 mg/mL; NADPH concentration, 1.0 mM; temperature, 37.0 °C.
(§4) Working solutions of the substrates and inhibitors for CYP2C9, CYP2D6, and CYP3A4 were prepared separately.
(§5) The NADPH solution was prepared and prewarmed at 37 °C in a shaking water bath before use.
(§6) Liver microsomes were thawed and diluted with a buffer.
(§7) The corresponding solutions were added to each well of an incubation plate and preincubated for 15 minutes. Group: Test group = Test compound at different concentrations + liver microsomes in a solution. Negative control group (NC) = microsomes + a buffer. Positive control group (PC) = microsomes + selective inhibitor for the corresponding CYP isoform.
(§8) After preincubation, a reactions was initiated by adding the corresponding solution (CYP3A4: 5 min; CYP2C9 and CYP2D6: 10 min). Test group = substrate for each CYP isoform + coenzyme. Negative control group (NC) = substrate for each CYP isoform + coenzyme. Positive control group (PC) = substrate for each CYP isoform + coenzyme.
(§9) All samples were incubated at 37 °C. At the termination time point, each reaction was stopped by adding pre-chilled methanol and the time was recorded.
(§10) After thorough mixing, all samples were centrifuged at 4,000 rpm for 10 min. The supernatants were collected and analyzed by LC-MS/MS.

CYP2C9 = CYP2C9 (Homo sapiens, UniProt P11712); experiment: CYP450 DDI, inhibition in liver microsomes; details: 10 µM, 10 min, microsomal protein 0.5 mg/mL
Protocol: as §1, §2, §3, §4, §5, §6, §7, §8, §9, §10

CYP2D6 = CYP2D6 (Homo sapiens, UniProt P10635); experiment: CYP450 DDI, inhibition in liver microsomes; details: 10 µM, 10 min, microsomal protein 0.5 mg/mL
Protocol: as §1, §2, §3, §4, §5, §6, §7, §8, §9, §10

Structure (SMILES)	relief of ACh-induced contraction (in words) [1]	EC50 [1] [µmol/L]	Relative Activity (% of NC) CYP3A4 (substrate: midazolam) (CYP3A4)	Relative Activity (% of NC) CYP3A4 (substrate: testosterone) (CYP3A4)	Relative Activity (% of NC) CYP2C9 (CYP2C9)	Relative Activity (% of NC) CYP2D6 (CYP2D6)
COc1cc2c(cc1OC)-c1cc(N(c3c(C)cc(C)cc3C)C(C)CNC(=O)c3[nH]nnc3C)nc(=O)n1CC2 (single isomer, unassigned) [Compound 12-1]	effectively relieved ACh-induced contraction	1.44				
COc1cc2c(cc1OC)-c1cc(N(c3c(C)cc(C)cc3C)C(C)CNC(=O)c3ccccn3)nc(=O)n1CC2 (centres unmarked)	effectively relieved ACh-induced contraction	0.666				
COc1cc2c(cc1OC)-c1cc(N(c3c(C)cc(C)cc3C)C(C)CNC(=O)c3ncc[nH]3)nc(=O)n1CC2 (single isomer, unassigned) [Compound 10-2]	effectively relieved ACh-induced contraction	0.167	95.2 % of NC	107 % of NC	69.9 % of NC	106 % of NC
COc1cc2c(cc1OC)-c1cc(=Nc3c(C)cc(C)cc3C)n(CCNC(N)=O)c(=O)n1CC2		6.21	76.5 % of NC	97.3 % of NC	66.5 % of NC	94.1 % of NC
COc1cc2c(cc1OC)-c1cc(N(c3c(C)cc(C)cc3C)C(C)CNC(=O)c3cccc(N)n3)nc(=O)n1CC2 (centres unmarked)			17.2 % of NC	31.7 % of NC	16.8 % of NC	82.0 % of NC
COc1cc2c(cc1OC)-c1cc(N(c3c(C)cc(C)cc3C)C(C)CNC(N)=O)nc(=O)n1CC2 (single isomer, unassigned) [Compound 1-2]	effectively relieved ACh-induced contraction	0.626	78.9 % of NC	66.2 % of NC	67.3 % of NC	89.8 % of NC
COc1cc2c(cc1OC)-c1cc(N(c3c(C)cc(C)cc3C)C(C)CNC(=O)c3cc(N)ccn3)nc(=O)n1CC2 (centres unmarked)			26.5 % of NC	28.4 % of NC	26.0 % of NC	91.6 % of NC
